Test results reported in article PMC8615095.

Molecular target: membrane-bound IgE-Fc (IgE-Fc-B-cell receptor: 3xFLAG-Cε2-Cε3-Cε4-EMPD-transmembrane-intracellular domain)
Assay: flow cytometry on cells; IgG (omalizumab 10-0.01 nM, quilizumab 100-0.1 nM) on Ramos-Fcε cells induced 48 h with 1 µg/mL doxycycline, uninduced cells and empty-vector cells, 30 min on ice; detected with anti-human-IgG-PE

Work on “omalizumab (Xolair), full-length IgG (antibody)” yielded an EC50 of 1 nM.
